What was measured:
RXFP4 K273A = RXFP4 K273A (Homo sapiens, UniProt Q8TDU9, K273A); test: cAMP accumulation, RXFP4 K273A; format: cell-based; conditions: HEK293T; mean ± S.E.M.
RXFP4 R208K = RXFP4 R208K (Homo sapiens, UniProt Q8TDU9, R208K); test: cAMP accumulation, RXFP4 R208K; format: cell-based; conditions: HEK293T; mean ± S.E.M.
RXFP4 R194A = RXFP4 R194A (Homo sapiens, UniProt Q8TDU9, R194A); test: cAMP accumulation, RXFP4 R194A; format: cell-based; conditions: HEK293T; mean ± S.E.M.
RXFP4 R208A = RXFP4 R208A (Homo sapiens, UniProt Q8TDU9, R208A); test: cAMP accumulation, RXFP4 R208A; format: cell-based; conditions: HEK293T
RXFP4 H299A = RXFP4 H299A (Homo sapiens, UniProt Q8TDU9, H299A); test: cAMP accumulation, RXFP4 H299A; format: cell-based; conditions: HEK293T
RXFP4 L118S+V122S = RXFP4 L118S+V122S (Homo sapiens, UniProt Q8TDU9, L118S/V122S); test: cAMP accumulation, RXFP4 L118S+V122S; format: cell-based; conditions: HEK293T
RXFP4 T295V = RXFP4 T295V (Homo sapiens, UniProt Q8TDU9, T295V); test: cAMP accumulation, RXFP4 T295V; format: cell-based; conditions: HEK293T; mean ± S.E.M.
RXFP3 H268Q = test: cAMP accumulation, RXFP3 H268Q; format: cell-based, human; conditions: HEK293T, mean ± S.E.M.
RXFP4 T121A = RXFP4 T121A (Homo sapiens, UniProt Q8TDU9, T121A); test: cAMP accumulation, RXFP4 T121A; format: cell-based; conditions: HEK293T
RXFP3 K271R = test: cAMP accumulation, RXFP3 K271R; format: cell-based, human; conditions: HEK293T, mean ± S.E.M.
RXFP4 F105A = RXFP4 F105A (Homo sapiens, UniProt Q8TDU9, F105A); test: cAMP accumulation, RXFP4 F105A; format: cell-based; conditions: HEK293T; mean ± S.E.M.
RXFP3 and RXFP4 = conditions: cited from earlier work
RXFP4 WT = RXFP4 WT (Homo sapiens, UniProt Q8TDU9); test: cAMP accumulation, WT RXFP4 (HEK293T); format: cell-based; conditions: […] forskolin, mean ± S.E.M.
RXFP4 Q205H = RXFP4 Q205H (Homo sapiens, UniProt Q8TDU9, Q205H); test: cAMP accumulation, RXFP4 Q205H; format: cell-based; conditions: HEK293T; mean ± S.E.M.
RXFP4 W97A = RXFP4 W97A (Homo sapiens, UniProt Q8TDU9, W97A); test: cAMP accumulation, RXFP4 W97A; format: cell-based; conditions: HEK293T

By UniProt entry, the sequences of proteins in these tests, tags left out. Where a name states a change or a piece, a line headed by the entry shows the natural chain unless it says otherwise.
UniProt Q8TDU9, whole entry R208A: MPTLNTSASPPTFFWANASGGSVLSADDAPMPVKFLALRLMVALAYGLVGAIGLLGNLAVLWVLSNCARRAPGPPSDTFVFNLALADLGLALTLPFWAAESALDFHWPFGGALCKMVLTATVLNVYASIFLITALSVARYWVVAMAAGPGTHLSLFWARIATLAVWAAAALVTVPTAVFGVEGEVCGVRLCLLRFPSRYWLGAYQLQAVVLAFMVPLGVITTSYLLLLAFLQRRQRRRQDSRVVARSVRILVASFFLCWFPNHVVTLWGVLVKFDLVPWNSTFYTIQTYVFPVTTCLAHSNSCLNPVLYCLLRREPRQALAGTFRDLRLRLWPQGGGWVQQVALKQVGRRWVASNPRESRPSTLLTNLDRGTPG
UniProt Q8TDU9, whole entry T121A: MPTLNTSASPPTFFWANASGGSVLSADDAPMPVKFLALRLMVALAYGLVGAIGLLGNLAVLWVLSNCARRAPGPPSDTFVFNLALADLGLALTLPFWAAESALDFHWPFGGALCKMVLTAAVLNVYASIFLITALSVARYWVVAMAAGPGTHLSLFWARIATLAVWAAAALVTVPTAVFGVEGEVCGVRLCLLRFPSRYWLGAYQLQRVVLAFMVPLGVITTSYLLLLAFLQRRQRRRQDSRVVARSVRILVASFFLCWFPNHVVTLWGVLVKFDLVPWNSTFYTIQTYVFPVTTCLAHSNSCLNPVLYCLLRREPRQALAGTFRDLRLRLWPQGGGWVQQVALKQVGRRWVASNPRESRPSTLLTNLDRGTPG
UniProt Q8TDU9, whole entry L118S/V122S: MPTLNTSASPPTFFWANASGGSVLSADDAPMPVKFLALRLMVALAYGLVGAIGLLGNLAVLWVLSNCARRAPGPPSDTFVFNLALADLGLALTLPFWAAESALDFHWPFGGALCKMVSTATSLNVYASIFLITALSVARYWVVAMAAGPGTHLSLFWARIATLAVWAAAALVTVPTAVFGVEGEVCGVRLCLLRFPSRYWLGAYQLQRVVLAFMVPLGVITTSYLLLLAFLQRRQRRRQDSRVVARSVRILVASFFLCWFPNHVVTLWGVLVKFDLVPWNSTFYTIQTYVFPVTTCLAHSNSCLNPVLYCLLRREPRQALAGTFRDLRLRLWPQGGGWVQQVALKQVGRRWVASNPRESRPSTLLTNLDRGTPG
UniProt Q8TDU9, whole entry: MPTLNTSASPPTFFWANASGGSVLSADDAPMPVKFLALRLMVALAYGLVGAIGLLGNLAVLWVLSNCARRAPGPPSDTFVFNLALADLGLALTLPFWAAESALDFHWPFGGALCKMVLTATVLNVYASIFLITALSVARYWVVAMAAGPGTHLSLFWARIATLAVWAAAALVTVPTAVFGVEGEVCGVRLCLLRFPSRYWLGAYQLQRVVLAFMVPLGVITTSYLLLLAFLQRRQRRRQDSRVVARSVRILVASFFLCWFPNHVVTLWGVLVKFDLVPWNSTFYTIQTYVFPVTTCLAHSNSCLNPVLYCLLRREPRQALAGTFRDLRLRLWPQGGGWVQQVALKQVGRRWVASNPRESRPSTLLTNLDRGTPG
UniProt Q8TDU9, whole entry W97A: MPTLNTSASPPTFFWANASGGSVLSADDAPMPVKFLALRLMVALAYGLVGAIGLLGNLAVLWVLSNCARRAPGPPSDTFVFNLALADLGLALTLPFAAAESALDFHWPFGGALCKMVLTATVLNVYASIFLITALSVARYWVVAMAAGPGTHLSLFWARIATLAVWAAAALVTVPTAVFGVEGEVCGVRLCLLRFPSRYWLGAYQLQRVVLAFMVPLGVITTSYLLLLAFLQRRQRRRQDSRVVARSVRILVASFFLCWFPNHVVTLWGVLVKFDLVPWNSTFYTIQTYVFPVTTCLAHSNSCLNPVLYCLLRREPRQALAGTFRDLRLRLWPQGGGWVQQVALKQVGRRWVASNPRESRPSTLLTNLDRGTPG
UniProt Q8TDU9, whole entry F105A: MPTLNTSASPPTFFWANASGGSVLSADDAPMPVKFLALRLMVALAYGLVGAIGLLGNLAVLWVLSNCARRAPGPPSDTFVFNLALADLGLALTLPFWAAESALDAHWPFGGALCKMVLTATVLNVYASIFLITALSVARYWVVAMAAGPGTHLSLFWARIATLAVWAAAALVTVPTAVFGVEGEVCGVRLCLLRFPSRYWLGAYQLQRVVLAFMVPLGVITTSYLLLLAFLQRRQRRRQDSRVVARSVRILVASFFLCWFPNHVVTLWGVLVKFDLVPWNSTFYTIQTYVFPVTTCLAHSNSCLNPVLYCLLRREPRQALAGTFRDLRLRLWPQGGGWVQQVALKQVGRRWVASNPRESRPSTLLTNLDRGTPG
UniProt Q8TDU9, whole entry H299A: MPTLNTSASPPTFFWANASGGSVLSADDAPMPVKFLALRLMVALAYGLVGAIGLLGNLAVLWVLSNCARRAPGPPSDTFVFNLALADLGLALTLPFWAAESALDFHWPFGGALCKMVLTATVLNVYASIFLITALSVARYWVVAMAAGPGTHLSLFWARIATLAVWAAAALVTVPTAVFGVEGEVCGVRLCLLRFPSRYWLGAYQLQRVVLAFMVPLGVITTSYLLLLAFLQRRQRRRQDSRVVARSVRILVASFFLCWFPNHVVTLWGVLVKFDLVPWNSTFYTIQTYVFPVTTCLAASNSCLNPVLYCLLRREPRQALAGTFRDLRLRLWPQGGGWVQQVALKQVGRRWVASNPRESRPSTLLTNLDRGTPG
UniProt Q8TDU9, whole entry K273A: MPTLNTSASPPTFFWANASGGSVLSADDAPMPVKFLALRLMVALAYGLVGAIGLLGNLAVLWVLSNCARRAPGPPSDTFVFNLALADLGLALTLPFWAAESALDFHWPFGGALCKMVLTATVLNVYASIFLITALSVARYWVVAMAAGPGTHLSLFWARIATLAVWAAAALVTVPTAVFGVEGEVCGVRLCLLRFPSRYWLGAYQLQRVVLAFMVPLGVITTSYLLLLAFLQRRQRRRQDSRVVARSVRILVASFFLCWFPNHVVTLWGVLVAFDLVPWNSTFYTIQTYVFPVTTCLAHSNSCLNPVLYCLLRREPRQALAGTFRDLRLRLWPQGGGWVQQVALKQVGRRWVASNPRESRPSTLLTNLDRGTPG
UniProt Q8TDU9, whole entry Q205H: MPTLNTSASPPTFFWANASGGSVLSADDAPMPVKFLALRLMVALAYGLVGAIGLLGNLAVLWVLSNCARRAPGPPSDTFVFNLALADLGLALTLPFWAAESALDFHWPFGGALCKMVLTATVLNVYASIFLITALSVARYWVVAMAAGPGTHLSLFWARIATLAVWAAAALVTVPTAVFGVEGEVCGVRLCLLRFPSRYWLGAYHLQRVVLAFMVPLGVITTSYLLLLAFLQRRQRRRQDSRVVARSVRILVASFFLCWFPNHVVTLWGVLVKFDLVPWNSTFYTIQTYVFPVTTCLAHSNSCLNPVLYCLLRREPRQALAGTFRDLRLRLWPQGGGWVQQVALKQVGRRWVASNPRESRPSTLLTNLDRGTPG
UniProt Q8TDU9, whole entry R194A: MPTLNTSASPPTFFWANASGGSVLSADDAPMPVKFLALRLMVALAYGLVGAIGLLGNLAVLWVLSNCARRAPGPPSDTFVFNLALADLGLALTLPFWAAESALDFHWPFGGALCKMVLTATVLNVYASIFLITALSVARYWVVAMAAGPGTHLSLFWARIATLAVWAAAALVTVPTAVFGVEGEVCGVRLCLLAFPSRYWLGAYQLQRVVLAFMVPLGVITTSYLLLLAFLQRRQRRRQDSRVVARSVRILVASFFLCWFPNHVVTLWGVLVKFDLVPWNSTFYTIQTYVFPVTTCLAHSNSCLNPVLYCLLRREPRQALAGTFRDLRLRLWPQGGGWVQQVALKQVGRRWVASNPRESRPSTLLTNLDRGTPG
UniProt Q8TDU9, whole entry R208K: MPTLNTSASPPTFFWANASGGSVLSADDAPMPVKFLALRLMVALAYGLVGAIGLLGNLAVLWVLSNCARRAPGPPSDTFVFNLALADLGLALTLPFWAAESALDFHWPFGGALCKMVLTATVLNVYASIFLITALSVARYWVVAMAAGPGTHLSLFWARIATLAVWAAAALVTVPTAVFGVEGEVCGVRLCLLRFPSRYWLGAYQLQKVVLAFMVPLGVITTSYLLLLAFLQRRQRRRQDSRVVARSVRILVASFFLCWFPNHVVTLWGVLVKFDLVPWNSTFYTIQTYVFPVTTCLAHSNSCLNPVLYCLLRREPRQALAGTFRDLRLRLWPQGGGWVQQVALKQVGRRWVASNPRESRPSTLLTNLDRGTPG
UniProt Q8TDU9, whole entry T295V: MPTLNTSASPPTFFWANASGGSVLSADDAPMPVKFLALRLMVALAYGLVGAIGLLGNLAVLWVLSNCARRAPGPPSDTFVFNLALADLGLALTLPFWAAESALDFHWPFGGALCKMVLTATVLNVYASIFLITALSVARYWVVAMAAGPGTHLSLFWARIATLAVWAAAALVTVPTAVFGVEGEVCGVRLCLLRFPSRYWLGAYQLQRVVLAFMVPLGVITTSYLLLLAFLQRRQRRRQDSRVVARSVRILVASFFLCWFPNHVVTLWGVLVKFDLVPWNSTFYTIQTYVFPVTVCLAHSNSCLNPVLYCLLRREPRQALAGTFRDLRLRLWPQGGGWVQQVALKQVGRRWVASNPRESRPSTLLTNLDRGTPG

Emax (RXFP4 K273A): 76.06 ± 6.54 % WT
Emax (RXFP4 R208K): 69.09 ± 4.02 % WT
Emax (RXFP4 R194A): 78.96 ± 8.75 % WT
decrease of potency vs WT (RXFP4 R208A): 6.6 fold
Emax (RXFP4 R208A; mean ± S.E.M.): 63.76 ± 4.94 % WT
cAMP response (RXFP4 H299A): abolished cAMP responses
response (RXFP4 L118S+V122S): without notable influence
Emax (RXFP4 L118S+V122S; mean ± S.E.M.): 106.23 ± 4.75 % WT
Emax (RXFP4 T295V): 41.58 ± 2.93 % WT
pEC50 (RXFP3 H268Q; 4 μM forskolin, n = 3): 7.39 ± 0.11
decrease of potency vs WT (RXFP4 T121A): 20.1 fold
Emax (RXFP4 T121A; mean ± S.E.M.): 59.77 ± 8.29 % WT
pEC50 (RXFP3 K271R; 4 μM forskolin, n = 3): 7.21 ± 0.17
Emax (RXFP4 F105A): 60.11 ± 5.70 % WT
Emax (RXFP4 WT): 98.22 ± 3.01 % WT
Emax (RXFP4 Q205H): 49.35 ± 7.02 % WT
cAMP response (RXFP4 W97A): abolished cAMP responses
Structure (SMILES): CCc1cc(O)cc2c(/C=N/NC(=N)NCCc3ccc(Cl)cc3)c[nH]c12
Emax (RXFP3 H268Q): 92.52 ± 4.71 % WT
Emax (RXFP3 K271R): 70.86 ± 5.48 % WT
agonist type (RXFP3 and RXFP4): RXFP3/RXFP4 dual agonist

Source: article PMC9886975, “Ligand recognition mechanism of the human relaxin family peptide receptor 4 (RXFP4)” (Nature Communications, 2023)
